Data reported in paper PMC7221482 (Neurochemistry international, 2019).

Amino acid sequences for entries named in this document (tags omitted). Residues count along the entry.
UniProt Q8R493, 21-495: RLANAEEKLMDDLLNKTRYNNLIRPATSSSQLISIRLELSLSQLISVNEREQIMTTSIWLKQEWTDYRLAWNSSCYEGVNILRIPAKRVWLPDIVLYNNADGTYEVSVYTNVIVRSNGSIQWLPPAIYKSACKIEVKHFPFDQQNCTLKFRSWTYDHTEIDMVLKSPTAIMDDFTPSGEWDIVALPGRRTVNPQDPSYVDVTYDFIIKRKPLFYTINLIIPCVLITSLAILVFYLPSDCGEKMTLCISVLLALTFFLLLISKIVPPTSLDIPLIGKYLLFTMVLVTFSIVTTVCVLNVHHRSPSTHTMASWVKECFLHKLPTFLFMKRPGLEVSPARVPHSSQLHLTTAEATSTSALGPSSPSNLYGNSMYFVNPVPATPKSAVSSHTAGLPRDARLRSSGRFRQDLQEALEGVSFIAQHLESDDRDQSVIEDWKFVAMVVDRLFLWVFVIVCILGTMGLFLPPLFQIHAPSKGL
UniProt Q8R4G9, 26-499: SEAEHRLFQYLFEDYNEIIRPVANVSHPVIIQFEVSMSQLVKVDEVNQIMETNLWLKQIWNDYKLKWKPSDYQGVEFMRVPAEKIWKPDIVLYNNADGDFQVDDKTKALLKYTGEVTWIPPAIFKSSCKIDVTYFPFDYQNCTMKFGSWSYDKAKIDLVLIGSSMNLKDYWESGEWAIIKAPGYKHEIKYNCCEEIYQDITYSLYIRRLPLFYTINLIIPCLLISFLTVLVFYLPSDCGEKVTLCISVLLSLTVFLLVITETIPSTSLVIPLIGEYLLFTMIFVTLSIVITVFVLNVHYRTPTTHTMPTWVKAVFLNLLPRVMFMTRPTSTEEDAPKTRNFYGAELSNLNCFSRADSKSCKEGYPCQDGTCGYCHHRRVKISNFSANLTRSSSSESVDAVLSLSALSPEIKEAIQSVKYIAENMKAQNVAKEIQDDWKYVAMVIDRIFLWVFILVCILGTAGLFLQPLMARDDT

Biological target: habenular mα3β4* AChRs (Mus musculus, UniProt Q8R493+Q8R4G9)
Assay: Patch-clamp recordings of ACh-evoked currents from MHb
Assay type: cell-based

SMILES: CN(C)CCCC1(c2ccc(F)cc2)OCc2cc(C#N)ccc21 (racemic) [(±)-citalopram, 1-[3-(dimethylamino)propyl]-1-(4-fluorophenyl)-1,3-dihydro-5-isobenzofurancarbonitrile]
- nH (Hill coefficient) (inhibition of ACh-evoked currents, MHb (VI) neurons): 0.90 ± 0.10
- electrical distance (δ) of the binding site along the ion channel (one-site blocking model, Eq. (1)): 0.40
